From PubChem BioAssay AID927 (National Center for Advancing Translational Sciences (NCATS), 2007)
Only a part is listed here, and it is no random draw. Active and inactive are the calls of the source. The call rests on the fitted dose curve; in most records, active means well fitted inhibition curve with a large enough effect; inconclusive means small, poorly fitted or top-dose-only effect; inactive means no such curve, though single readings can be large or run the other way.
Further: nearly all actives have a fitted effect of over 60% in size.

Protein sequences, listed by entry. Tags and fused reporters are not part of them. Lines headed by an entry give the natural chain unless they say otherwise; changes in a name come on top.
UniProt O75604: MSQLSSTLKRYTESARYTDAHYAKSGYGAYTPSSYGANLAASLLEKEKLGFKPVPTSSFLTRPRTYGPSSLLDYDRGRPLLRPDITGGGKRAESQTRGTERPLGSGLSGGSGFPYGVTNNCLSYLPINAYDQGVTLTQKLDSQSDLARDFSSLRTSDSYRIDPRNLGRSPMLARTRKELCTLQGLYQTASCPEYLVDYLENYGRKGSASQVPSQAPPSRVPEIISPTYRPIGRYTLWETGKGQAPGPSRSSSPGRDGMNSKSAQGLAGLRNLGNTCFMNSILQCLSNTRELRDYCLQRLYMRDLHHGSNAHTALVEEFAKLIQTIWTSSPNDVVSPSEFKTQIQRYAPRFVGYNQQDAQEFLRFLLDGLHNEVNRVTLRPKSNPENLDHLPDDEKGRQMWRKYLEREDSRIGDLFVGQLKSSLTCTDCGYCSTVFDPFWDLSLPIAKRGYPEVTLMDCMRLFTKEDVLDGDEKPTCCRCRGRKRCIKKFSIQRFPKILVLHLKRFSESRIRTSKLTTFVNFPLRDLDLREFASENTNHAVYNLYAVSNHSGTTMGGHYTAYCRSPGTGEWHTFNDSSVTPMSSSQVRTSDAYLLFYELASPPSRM

Each compound was assayed against Ubiquitin carboxyl-terminal hydrolase 2 (Homo sapiens) (UniProt O75604) (assay: qHTS Assay for Inhibitors of Ubiquitin-specific Protease USP2a). Details: USP2a enzymatic assay; at 38.3 µM (top of the series) unless noted.
Source text: NIH Molecular Libraries Screening Centers Network [MLSCN]
NIH Chemical Genomics Center [NCGC]
PI Name: Nicholson, Ben. Progenra Inc, Malvern, PA
Homeostasis of cellular proteins is maintained through a combination of synthesis and degradation. The pathway that accounts for the majority of protein degradation is the ubiquitin-proteasomal pathway. Ubiquitin (Ub) is highly conserved in all cells and the generation of a multi-Ub chain typically targets proteins for degradation by the proteasome. However, ubiquitination is highly reversible and dynamic. Deubiquitination, the reverse process, is catalyzed through the action of enzymes referred to as isopeptidases or deubiquitinating enzymes (DUBs). This group of enzymes is collectively responsible for maintaining adequate pools of free ubiquitin and regulating the ubiquitination status of cellular proteins. The class of DUBs referred to as the ubiquitin-specific proteases (USP) family functions endoproteolytically to cleave Ub chains from a wide range of protein substrates. USP2a deubiquitinates fatty acid synthase (FASN) which has recently been identified as an emerging oncology target. To identify inhibitors of USP2a a cell-free assay was employed.
The reporter enzyme chosen is phospholipase A2 (PLA2), which has an absolute requirement for a free amino terminus. Thus, fusion of a UBL to the N-terminus of PLA2 inactivates PLA2. When the UBL-PLA2 reporter enzyme is cleaved by USP2, the activated reporter can subsequently act on its substrate, which is the commercially available NBD C6-HPC (Invitrogen). Thus, this coupled assay gives a fluorescent read-out, which is generated through the cleavage of the PLA2 reporter enzyme. The assay, developed by Progenra, Inc. uses Ub-PLA2 and USP2a at near equal and low (nM) amounts and has been licensed for sale by LifeSensors, Inc. as the Ub-IsoPro1 kit.
NCGC Assay Protocol Summary:
The assay buffer, prepared fresh at the day of the assay, contains 20mM Tris-HCl pH 8.0, 2mM CaCl2, 2mM beta-Mercaptoethanol, 0.1% DMSO. 3ul of 40nM (20nM final) USP2 core, which is stored on ice, is dispensed into a medium-binding black solid Kalypsys 1,536 well plate using the Kalypsys dispenser. The assay plate is then pinned with 23nL compound with the Kalypsys pintool in columns 5-48. The controls are pinned as follows: column 1&2 two-fold dilutions of 2M NEM in duplicate; column 3 DMSO; column 4 2M NEM (final concentration 38.2mM). The assay plate is incubated at RT for 30min. Subsequently, 3uL of 40nM (20nM final) Ub-PLA2 and 40uM (20uM final) NBD C6-HPC (stored on ice and protected from light) were dispensed into the plate using the Kalypsys dispenser. Plates were read immediately (0 Hour) on an Envision (Perkin Elmer) plate reader using the following wavelengths Ex 460nm /Em 535nm. Then, the assay plates were incubated for 2.5 hours and read again on the Envision using the same settings
Data were normalized to the to AC100 inhibition (NEM). Concentration-response curves were fitted to the normalized data and the concentration-response curves were then classified based on curve quality (r2), response magnitude and degree of measured activity. The time zero reading was used to flag fluorescence artifacts.
Keywords: ubiquitination, deubiquitination, proteases, profluorescent, MLSMR, MLSCN, NIH Roadmap, qHTS, NCGC
For O=P(Nc1nccs1)(c1ccccc1)c1ccccc1, the activity change, negative = inhibition was inactive: -0.752%. For c1nnnn1CCn1cnnn1, the activity change, negative = inhibition was inactive: -2.51%. With O=C(OC1CN2CCC1CC2)c1cccc(Cl)c1 (stereo not drawn) the activity change, negative = inhibition was inactive: 0.412%. With COC(=O)c1cc2c(s1)N=C(c1ccccc1)N(C)P2(=O)N1CCOCC1 (stereo not drawn) the activity change, negative = inhibition was inactive: -6.11%. With O=P1(Nc2nc3ccc(Cl)cc3s2)COc2ccccc2O1 (stereo not drawn) the activity change, negative = inhibition was inactive: -0.25%. With Cc1c2non([O-])c-2c(C)[n+](=O)[n+]1[O-] the activity change, negative = inhibition was inactive: -10.5%. For CN(C(=O)Cc1ccccc1)[C@@H]1CC[C@@]2(CCCO2)C[C@H]1N1CCCC1, the activity change, negative = inhibition was inactive: -11.9%. For CCc1nc2c(n1)c1c(non1O)c1c2no[n+]1[O-], the activity change, negative = inhibition was inactive: -0.284%. For COP1(=S)c2c(C)nn(CCC#N)c2N=C(c2ccc(F)cc2)N1C (stereo not drawn), the activity change, negative = inhibition was inactive: -2.28%. With O=C(COc1ccccc1)OC1CN2CCC1CC2 (stereo not drawn) the activity change, negative = inhibition was inactive: -2.48%. In the case of O=C(OC1CN2CCC1CC2)C12CC3CC(CC(C3)C1)C2 (stereo not drawn), the activity change, negative = inhibition was inactive: -0.564%. CN(C(=O)Cc1ccc(Cl)c(Cl)c1)[C@@H]1CC[C@@]2(CCCO2)C[C@H]1N1CCCC1 was tested, and the activity change, negative = inhibition was inactive: 5.85%. In the case of NC(=O)Nc1ccc([As](=O)(O)O)cc1, the activity change, negative = inhibition was inactive: -7.97% [at 17.1 µM]. In the case of CCOP1(=S)c2c(C)nn(CCC#N)c2N=C(c2ccc(F)cc2)N1C (stereo not drawn), the activity change, negative = inhibition was inactive: -6.83%. With O=P(Nc1nccs1)(c1ccccc1)c1nc2ccccc2s1 (stereo not drawn) the activity change, negative = inhibition was inactive: -7.62%. With CCOP1(=S)c2c(C)nn(CCC#N)c2N=C(c2ccccc2F)N1C (stereo not drawn) the activity change, negative = inhibition was inactive: 1.74%. In the case of O=P1(Nc2ncccn2)COc2ccccc2OC1, the activity change, negative = inhibition was inactive: -4.25%. In the case of O=P1(Nc2ccc(Br)cn2)COc2ccccc2OC1, the activity change, negative = inhibition was inactive: 0.395%. For Cc1nn(-c2ccccc2)c2c1P(=O)(N1CCOCC1)N(C)C(c1ccccc1)=N2 (stereo not drawn), the activity change, negative = inhibition was inactive: -0.979%. With CN(C(=O)Cc1ccc(Cl)c(Cl)c1)[C@@H]1CCCC[C@H]1N1CCCC1 the activity change, negative = inhibition was inactive: 3.29% [middle of 4 runs]. With CN(CCCl)Cc1cc(Cl)c(NC2=NCCN2)c(Cl)c1 the activity change, negative = inhibition was inactive: -7.7%. With O=P1(Nc2ccccn2)COc2ccccc2OC1 the activity change, negative = inhibition was inactive: -8.33%. With Clc1n[nH]nc1-c1nn[nH][15n]1 the activity change, negative = inhibition was inactive: -1.32%.
